Measurements reported in patent US12121523B2, “Method of treatment of attention deficit/hyperactivity disorder (ADHD)” (Supernus Pharmaceuticals, Inc., priority 2008, dated 2024).

The chains behind the UniProt entries cited, without tags or fusion partners.
UniProt P34969, whole entry: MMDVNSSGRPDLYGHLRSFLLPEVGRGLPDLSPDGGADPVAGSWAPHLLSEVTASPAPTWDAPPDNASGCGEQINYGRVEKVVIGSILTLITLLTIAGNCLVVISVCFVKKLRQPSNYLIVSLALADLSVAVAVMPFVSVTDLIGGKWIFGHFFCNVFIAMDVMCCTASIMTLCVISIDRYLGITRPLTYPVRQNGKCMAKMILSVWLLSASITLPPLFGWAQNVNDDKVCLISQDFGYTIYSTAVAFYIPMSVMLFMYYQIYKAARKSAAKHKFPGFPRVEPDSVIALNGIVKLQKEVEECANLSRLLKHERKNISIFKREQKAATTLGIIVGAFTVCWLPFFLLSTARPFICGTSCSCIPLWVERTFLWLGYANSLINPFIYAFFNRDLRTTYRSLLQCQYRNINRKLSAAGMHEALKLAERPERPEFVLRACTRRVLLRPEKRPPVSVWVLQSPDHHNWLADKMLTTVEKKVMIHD

Assays:
[1] = target: T1, 5-HT7 (h) (Homo sapiens, UniProt P34969); settings: 45 min/37° C.; FIG. 2
Protocol: The apparent dissociation constants for antagonists Kb were calculated using the modified Cheng Prusoff equation.

[2] = target: T1, 5-HT7 (h)

Viloxazine
agonist effect (cAMP response) [1]: no measurable response
antagonist activity (in words) [2]: specific antagonist activity
IC50 ([2]; read-out: antagonist IC50, serotonin-stimulated cAMP, 45 min/37° C., FIG. 3): > 30 µM
